Values quoted from earlier work, collected in patent US20240109972A1, “ANTIBODY AND TAXANE COMBINATION THERAPY” (Genmab A/S, priority 2020, published 2024).

System: SCCHN
Details: cetuximab added to platinum and 5-FU vs platinum and 5-FU alone; cited from earlier work

cetuximab
Survival: 10.1 months
mPFS: 3.3 months
